Source: article PMC11241748, “DNA Repair Protein XRCC1 Stimulates Activity of DNA Polymerase λ under Conditions of Microphase Separation”

Molecular target: Cy3-labeled XRCC1 (X-ray repair cross-complementing protein 1) (UniProt P18887)
Test: FRET or BRET; Cy3-XRCC1 constant at 30 nM, titrated with 0-8000 nM Cy5-labelled polymerase; decrease of donor fluorescence (excitation 530 nm, emission 580 nm); 50 mM HEPES-NaOH pH 8.0, 100 mM NaCl, 2 mM DTT; 25 °C

Kd: 29 nM
Substance: Cy5-labeled DNA polymerase β (from UniProt P06766 1-335) (enzyme; other documents disagree on this pair)
